According to the NIST ThermoML archive (doi:10.1021/je1000582):
Numbers after ± are expanded uncertainties.

Test: activity coefficient (dimensionless); of the first substance listed, at infinite dilution; xn = mol fraction of the nth substance listed
Conditions: 101 kPa, Liquid, Chromatography, x1 = 0

CCCCOCCCC [dibutyl ether] + CCCC[n+]1cccc(C)c1.O=S(=O)([O-])C(F)(F)F
Conditions | activity coefficient
308.15 K | 21.1 ± 1.4
318.15 K | 20.2 ± 1.4
328.15 K | 19.4 ± 1.3
338.15 K | 18.5 ± 1.3
348.15 K | 17.8 ± 1.2
358.15 K | 17.1 ± 1.2
